Assay results as given in publication PMC7999702, “Bioactive Bromotyrosine Derivatives from the Pacific Marine Sponge Suberea clavata (Pulitzer-Finali, 1982)” (Marine Drugs, 2021).

The chains behind the UniProt entries cited, without tags or fusion partners. Residues count along the entry.
UniProt O42275, 24-633: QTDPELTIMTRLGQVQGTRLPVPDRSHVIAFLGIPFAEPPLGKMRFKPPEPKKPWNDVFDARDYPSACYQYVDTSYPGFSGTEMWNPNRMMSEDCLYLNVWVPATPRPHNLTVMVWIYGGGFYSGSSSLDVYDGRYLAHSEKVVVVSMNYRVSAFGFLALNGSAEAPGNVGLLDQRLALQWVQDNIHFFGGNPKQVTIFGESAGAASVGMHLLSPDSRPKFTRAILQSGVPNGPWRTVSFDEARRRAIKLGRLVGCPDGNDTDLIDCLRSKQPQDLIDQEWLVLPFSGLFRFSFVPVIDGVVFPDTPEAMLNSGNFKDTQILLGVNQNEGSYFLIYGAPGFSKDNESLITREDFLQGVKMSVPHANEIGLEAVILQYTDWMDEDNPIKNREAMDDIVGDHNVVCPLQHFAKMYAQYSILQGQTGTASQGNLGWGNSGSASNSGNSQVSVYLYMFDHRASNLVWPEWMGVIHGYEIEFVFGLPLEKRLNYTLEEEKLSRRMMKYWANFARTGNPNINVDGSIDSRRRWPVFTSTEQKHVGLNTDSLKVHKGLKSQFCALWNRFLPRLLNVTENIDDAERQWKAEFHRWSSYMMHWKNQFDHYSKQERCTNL

Target: T1, Acetylcholinesterase from Electrophorus electricus (Electrophorus electricus, UniProt O42275)
T1 construct: purchased Sigma-Aldrich
Type: biochemical
Settings: mean ± SD, triplicate; 30 min at 25 °C, absorbance 405 nm
Procedure: This bioassay was set up after Ellman. This method is the most commonly used to screen compounds against this target. All reagents, buffers, and salts were purchased from Sigma-Aldrich (Saint-Louis, MO, USA). Two buffer solutions were prepared extemporaneously: buffer A (50 mM Tris-HCl pH 8 + 0.1% BSA); and buffer B (50 mM Tris-HCl pH 8 + 0.1 M NaCl + 0.02 M MgCl2.6H2O). Acetylcholinesterase from Electrophorus electricus (EC 3.1.1.7, AChE−0.2 U/mL) was dissolved in buffer A, 5,5′-dithiobis-2-nitrobenzoic acid (DTNB-Ellman’s reagent−3 mM) in buffer B, and acetylthiocholine iodide (ACTI−6 mM) in H2O. Tested compounds were dissolved in DMSO at 10 mg/mL, stored at −20 °C, and subsequently 100 times diluted in H2O before the assay. 10 μL AChE was preincubated for 10 min with 70 μL DTNB and 10 μL compounds solution in 96-well microplates. […] After 30 min at 25 °C, absorbance of the plate was measured at 405 nm using a microplate reader (Tecan Infinite M200). Percentage of inhibition was calculated using the following equation: 100 × (Acontrol − Asample)/(Acontrol − A0), where Acontrol is the average absorbance of the wells in which tested compounds were replaced by water, Asample is the absorbance of the well with tested compound, and A0 the average absorbance of blank wells where AChE was omitted. […]
Each assay was performed in triplicate and results are expressed as mean values ± SD.

agelorin A [agelorin A (11)]
Acetylcholinesterase IC50: better activity than the reference compound Galantamine | IC50: 190 ± 200 nM
